This test has as its target human GPR39 receptor (Homo sapiens, UniProt O43194). Nature of the test: Measurement of intracellular calcium response in PC3 cells (FLIPR), antagonism of the C3 agonist response. The class given is cell-based. The following applies: functional pKi (modified Cheng-Prusoff), inhibition of the C3 (TC-G 1008) response at EC90, 30 μM ZnCl2. As to the method: Human prostate adenocarcinoma (PC3) cells endogenously expressing human GPR39 receptor were seeded into black walls clear-base 384-well plates at a density of 7,500 cells per well in DM EM (Low Glucose) supplemented with 10% heat-inactivated foetal bovine serum and 1% of Pen/Strep and grown overnight at 37° C., 5% CO2. After washing with assay buffer (20 mM HEPES, 137 mM NaCI, 5.4 mM KCI, 10 mM glucose, 0.8 mM MgSO4, 1.3 mM CaCl2, 0.3 mM Na2HPO4, 0.4 mM KH2PO4 4.2 mM NaHCO3, pH 7.4), cells were incubated with Calcium-6 probe (Molecular Devices) at 37° C. for 2h and then equilibrated at RT for 30 minutes on metal block. The fluorescence was measured in real time by Fluorometric Imaging Plate Reader (FLIPR TETRA, Molecular Devices) (excitation wavelength at 470-495 nm, emission wavelength at 515-575 nm).
Compounds of invention were serially diluted in neat DMSO at 1000 fold concentrations and plated into 384-well plates and then 200-fold diluted in assay buffer containing 150 uM ZnCl2 (30 μM final concentration) and […]. […]
Fluorescence was monitored throughout the run assay. The peak of Ca2+stimulation (baseline subtracted) was expressed as percentage of the maximal inhibition of the EC90 C3 response and was plotted versus the concentration of test compound. […]
Background: Calcium flux is commonly read through the fluorescence of an indicator in the cells.

By UniProt entry, the sequences of proteins in these tests, tags left out.
UniProt O43194, whole entry: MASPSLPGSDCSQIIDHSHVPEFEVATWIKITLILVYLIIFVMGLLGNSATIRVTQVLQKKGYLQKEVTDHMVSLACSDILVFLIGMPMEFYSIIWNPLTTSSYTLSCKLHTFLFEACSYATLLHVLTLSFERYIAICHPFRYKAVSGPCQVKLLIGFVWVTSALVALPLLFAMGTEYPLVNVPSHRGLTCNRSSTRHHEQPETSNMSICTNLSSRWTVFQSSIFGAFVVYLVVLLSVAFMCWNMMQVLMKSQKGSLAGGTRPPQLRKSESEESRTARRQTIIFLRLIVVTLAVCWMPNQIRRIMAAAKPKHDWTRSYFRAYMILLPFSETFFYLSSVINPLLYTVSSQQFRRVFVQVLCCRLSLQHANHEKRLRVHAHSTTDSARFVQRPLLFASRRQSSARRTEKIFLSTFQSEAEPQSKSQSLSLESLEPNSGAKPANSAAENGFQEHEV

On to `Cn1c(Sc2cccnc2)nnc1-c1ccc(NC(=O)C2CC2)cc1N1CCCC1`, for which the fpKi activity result is “+ (An fpKi ranging from 5.2 to 5.9 is reported as “+”)”.
